Tests used:
[1] = system: IGROV-1, SKOV-3 and BT474 cell line tumours; details: mouse, in vivo
[2] = SDS-PAGE of labelled antibody before and after mild hyperthermia incubation; format: physicochemical; details: 7 min at 42 °C
Experimental: Antibody fractions were identified by absorbance at 280 nm. XenoLight CF 750 NHS (0.5 μmole; ‘XL750’) previously dissolved in anhydrous DMSO (50 μL) was then slowly added with vigorous vortexing. Then mixture was then left stirring at r.t. for 1 h before re-separating on the PD-10, run in DPBS alone. Conjugation appeared to be almost complete (>90%) with little dye retained on the column. The resulting deep blue solution was split into 200 μL portions for storage at −20° C. Estimated final concentration was 5 mg/mL antibody, 0.24 nmol/mL XL750. Absorbance bands for a diluted sample were 280 nm (0.67 AU; protein) and 750 nm (>2 AU; NIRF dye), fluorescence peaked at 785 nm on excitation at 750 nm. Samples of the labelled antibody were analysed by SDS-PAGE using 4-20% tris-glycine non-reducing gels and highlighting protein bands with silver stain (SilverQuest, Sigma Aldrich).

[3] = system: IGROV-1 tumours; details: mouse, in vivo

Row | Substance | effect of Her-2 expression level on biodistribution in tumours [1] | SDS-PAGE differences before and after incubation [2] | NIRF signal of excised heated tumours vs left-hand controls [3] | concentration in the excised tumour [3] | intensity of the NIRF signal maintained in tumours [3] | uptake in left vs right tumours [3] | duration of difference in labelled antibody uptake ([3]; 8 mg/kg) | time of maximum accumulation in tumours [3] [h]
1 | XL750-trastuzumab: Trastuzumab conjugated with XenoLight CF 750 NHS NIRF dye | appeared not to affect the biodistribution | No significant differences | substantially more NIRF signal | smaller increase | at least 7 days | the same in both tumours | more than a week | 
2 | trastuzumab: monoclonal antibody that binds to HER2/neu receptors |  |  |  |  |  |  |  | 24 to 48
